Data: patent US8481501B2 (priority 2004, dated 2013)

Amino acid sequences for entries named in this document (tags omitted).
UniProt P42866, whole entry: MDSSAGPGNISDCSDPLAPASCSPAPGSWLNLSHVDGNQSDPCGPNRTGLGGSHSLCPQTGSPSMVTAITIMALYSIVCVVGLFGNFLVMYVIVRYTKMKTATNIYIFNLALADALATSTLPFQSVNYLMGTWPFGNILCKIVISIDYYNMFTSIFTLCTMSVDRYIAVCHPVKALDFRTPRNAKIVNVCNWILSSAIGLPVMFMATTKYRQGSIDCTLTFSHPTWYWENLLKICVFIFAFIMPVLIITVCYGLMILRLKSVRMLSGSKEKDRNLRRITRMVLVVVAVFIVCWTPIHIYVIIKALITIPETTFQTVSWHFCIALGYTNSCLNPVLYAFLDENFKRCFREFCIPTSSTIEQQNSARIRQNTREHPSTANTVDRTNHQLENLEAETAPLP

Biological target: T1, mu receptor (Mus musculus, UniProt P42866)
T1 construct: expressed in transfected cells
Type: cell-based

## CN1CCC23c4c5ccc(O)c4OC2C(O)C=CC3C1C5 (stereo not shown) [morphine, reference compound]
  Mu receptor internalization % control: 93%
